According to US7910548B2, “Methods for treating obesity” (Amylin Pharmaceuticals, Inc., priority 1997, dated 2011):

Experiment: Measurement of body weight in insulin-using Type II diabetes patients, 4-week study
Assay type: in vivo, human
Settings: for Body Weight: Change at Week 4, Mean: 4 weeks, change from baseline, with continued insulin
Description: Study participants were males and females 25 to 78 years of age with a history of Type II diabetes mellitus requiring treatment with insulin for at least 6 months prior to the pre-screening visit. […] The study employed methods described in Thompson et al., Diabetes 46:632-636 (1997). Following a placebo lead-in period, patients were randomized to receive placebo or one of three dose regimens of ^25,28,29Pro-h-amylin (pramlintide) for 4 weeks: 30 μg QID (before breakfast, lunch, dinner and evening snack), 60 μg TID (before breakfast, lunch and dinner) or 60 μg QID (before breakfast, lunch, dinner and evening snack). Throughout the study drug period, patients self-administered four injections of study drug daily, within 15 minutes of each meal and the evening snack. During the double-blind period, patients randomized to pramlintide 60 μg TID administered placebo before the evening snack. Both pramlintide and placebo were administered as separate injections into the subcutaneous tissue of the anterior abdominal wall; the specific site was alternated after each injection. Patients were instructed to remain on their usual diet, insulin and exercise regimens throughout the study, unless otherwise instructed by the investigator, and to abstain from alcoholic beverages prior to all clinic visits.

CC[C@H](C)[C@H](NC(=O)[C@@H]1CCCN1C(=O)CNC(=O)[C@H](Cc1ccccc1)NC(=O)[C@H](CC(N)=O)NC(=O)[C@H](CC(N)=O)NC(=O)[C@H](CO)NC(=O)[C@H](CO)NC(=O)[C@H](Cc1c[nH]cn1)NC(=O)[C@@H](NC(=O)[C@H](CC(C)C)NC(=O)[C@H](Cc1ccccc1)NC(=O)[C@H](CC(N)=O)NC(=O)[C@H](C)NC(=O)[C@H](CC(C)C)NC(=O)[C@H](CCCNC(=N)N)NC(=O)[C@H](CCC(N)=O)NC(=O)[C@@H](NC(=O)[C@H](C)NC(=O)[C@@H]1CSSC[C@H](NC(=O)[C@@H](N)CCCCN)C(=O)N[C@@H](CC(N)=O)C(=O)N[C@@H]([C@@H](C)O)C(=O)N[C@@H](C)C(=O)N[C@@H]([C@@H](C)O)C(=O)N1)[C@@H](C)O)C(C)C)C(=O)N[C@@H](CC(C)C)C(=O)N1CCC[C@H]1C(=O)N1CCC[C@H]1C(=O)N[C@H](C(=O)N[C@@H](CC(N)=O)C(=O)N[C@H](C(=O)NCC(=O)N[C@@H](CO)C(=O)N[C@@H](CC(N)=O)C(=O)N[C@H](C(=O)N[C@@H](Cc1ccc(O)cc1)C(N)=O)[C@@H](C)O)C(C)C)[C@@H](C)O [Pramlintide, ^25,28,29Pro-h-amylin]
Body Weight: Change at Week 4, Mean (30 μg QID subcutaneous): -0.36 kg
Body Weight: Change at Week 4, Mean (60 μg QID subcutaneous): -0.72 kg
Body Weight: Change at Week 4, Mean (60 μg TID subcutaneous): -0.89 kg
Effect on body weight (in words) (insulin-using Type 2 diabetics, statistically significant within 60 μg TID and 60 μg QID groups): decrease in body weight
